Test results taken from patent US20110263552A1, “MODULATION OF SIDE EFFECT PROFILE OF 5-ALPHA REDUCTASE INHIBITOR THERAPY” (SOV Therapeutics, priority 2009, published 2011).

Assay: Testosterone undecanoate (TU) solubility in various solubilizers
Settings: at 37 C.

For `CCCCCCCCCCC(=O)O[C@H]1CC[C@H]2[C@@H]3CCC4=CC(=O)CC[C@]4(C)[C@H]3CC[C@]12C` [TU, testosterone undecanoate], the “TU Solubility” value (vehicle Glyceryl mono and dicapylate/caprate (Imwitor 742)) was 356 mg/g, the “TU Solubility” value (vehicle Labrafil M 1944 CS) was 242 mg/g and the “TU Solubility” value (vehicle Linseed oil) was 179 mg/g. The “TU Solubility” value (vehicle Olive oil) was 161 mg/g, the “TU Solubility” value (vehicle Phosal 50 PG (~50% Lecithin in PG, sunflower mono-diglycerides and ascorbyl palmitate)) was 138 mg/g and the “TU Solubility” value (vehicle Sesame oil) was 138 mg/g. For the same molecule, the “TU Solubility” value (vehicle Soybean oil) was 113 mg/g.
